Assay results taken from ChEMBL document CHEMBL1132981 (J Med Chem, 2000).

Chains of the proteins cited; added tags and fusions are not shown. Lines headed by an entry give the natural chain unless they say otherwise; changes in a name come on top.
UniProt P30542, whole entry, looked up: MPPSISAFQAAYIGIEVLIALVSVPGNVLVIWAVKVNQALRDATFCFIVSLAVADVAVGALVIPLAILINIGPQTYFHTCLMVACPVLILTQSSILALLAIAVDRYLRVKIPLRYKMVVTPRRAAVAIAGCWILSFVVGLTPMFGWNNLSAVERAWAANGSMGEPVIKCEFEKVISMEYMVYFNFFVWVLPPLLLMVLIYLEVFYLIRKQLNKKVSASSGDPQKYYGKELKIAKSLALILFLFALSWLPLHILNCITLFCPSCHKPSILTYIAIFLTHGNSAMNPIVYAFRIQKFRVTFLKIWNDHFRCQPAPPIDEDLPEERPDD
UniProt P29275: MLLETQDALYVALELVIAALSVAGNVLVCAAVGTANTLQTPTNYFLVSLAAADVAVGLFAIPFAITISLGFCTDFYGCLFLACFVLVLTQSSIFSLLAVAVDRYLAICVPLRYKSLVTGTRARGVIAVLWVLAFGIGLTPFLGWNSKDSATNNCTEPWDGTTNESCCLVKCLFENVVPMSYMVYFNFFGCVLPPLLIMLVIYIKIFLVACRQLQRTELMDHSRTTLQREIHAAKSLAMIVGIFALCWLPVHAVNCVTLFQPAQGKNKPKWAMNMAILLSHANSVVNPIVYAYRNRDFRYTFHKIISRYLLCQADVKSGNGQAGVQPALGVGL
UniProt P0DMS8, whole entry, looked up: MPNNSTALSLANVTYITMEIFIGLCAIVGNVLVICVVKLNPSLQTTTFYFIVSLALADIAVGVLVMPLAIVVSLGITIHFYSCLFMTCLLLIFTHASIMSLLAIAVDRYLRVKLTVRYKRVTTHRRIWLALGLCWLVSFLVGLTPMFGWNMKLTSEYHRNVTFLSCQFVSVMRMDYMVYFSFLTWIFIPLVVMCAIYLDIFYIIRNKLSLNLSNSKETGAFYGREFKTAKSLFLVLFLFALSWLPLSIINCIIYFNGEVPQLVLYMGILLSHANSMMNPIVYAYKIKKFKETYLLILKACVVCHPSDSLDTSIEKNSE

Assays:
[1] = target: Adenosine receptors; A1 & A2b (Homo sapiens) (UniProt P30542+P29275); experiment: Selectivity ratio of hA1 to hA2B; format: protein assay
[2] = target: Adenosine receptors; A2b & A3 (Homo sapiens) (UniProt P29275+P0DMS8); experiment: Selectivity ratio of hA3 to hA2B; format: protein assay

Ratio [1]: 27
Ratio [2]: 39
Compound: CCCn1c(=O)c2nc(-c3ccc(OCC(=O)NCc4ccccc4)cc3)[nH]c2n(CCC)c1=O
